Values joined by “and” are separate entries in the source; they are usually repeats but may differ in a detail not shown here. Equal entries are not always repeated. Where two headings read alike, the source gives them in different places.
Tested on: H292-HGF human lung cancer xenograft
Assay type: in vivo

For Cetuximab: anti-EGFR antibody, the “T-C at 1000 mm^3 (tumor growth delay)” value (compared with the vehicle group) was 17 days, the Tumor volume (day 7 (start of treatment), mean ± SEM, doses as in column head) was 139 ± 10 mm^3 and the Tumor volume (day 9, mean ± SEM) was 168 ± 13 mm^3. It also gave a Tumor volume (day 13, mean ± SEM) of 212 ± 20 mm^3, a Tumor volume (day 16, mean ± SEM) of 252 ± 28 mm^3 and a Tumor volume (day 20, mean ± SEM) of 371 ± 48 mm^3. For the same substance, the T/C (day 23) was 28%, the Tumor volume (day 23, mean ± SEM) was 485 ± 61 mm^3 and the “Tumor Size at day 23” value (day 23 after tumor inoculation, doses as printed with treatment) was 485 mm^3 and 485 ± 61 mm^3. For the same substance, the Tumor volume (day 27, mean ± SEM) was 640 ± 82 mm^3, the Tumor volume (day 30, mean ± SEM) was 869 ± 100 mm^3 and the “antitumor activity (in words)” value (doses as in Table 14) was “significant antitumor activities”. The “tolerability / body weight loss (in words)” value (doses as in Table 14) was “well tolerated”.

Source: patent US9695228B2, “EGFR and c-Met fibronectin type III domain binding molecules” (Janssen Biotech, Inc., priority 2012, dated 2017)
